ALDH1A1 inh – ALDH1A1 (human) enzyme inhibition. P00352. Purified ALDH1A1, NADH fluorescence, propionaldehyde substrate. Potency, µM (doses to about 75.3 µM), for the others: at the top dose activity, negative = inhibition, actives largely listed as inhibitors. 220,000 compounds, 7.3% hits. AID 1030; active = well fitted inhibition curve with a large enough effect, not every such curve was filed as active; inconclusive = small, poorly fitted or top-dose-only effect, or another doubt; inactive = no such curve, though single readings can be large or run the other way;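 also: potency is read from the fitted curve at half-maximal effect; plate controls were no enzyme wells and a reference inhibitor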
miR-21 reporter – raises the signal of a miR-21 reporter | Potency, µM (highest dose often 38.3 µM), without a hit: at the top dose reporter change, positive = more light | HeLa miR-21 FLuc reporter, luciferase, 48 h | 340,000 tested, under 10 active; active = well fitted rising curve with a large enough effect; inconclusive = small, poorly fitted or top-dose-only effect; inactive = no such curve, though single readings can be large or run the other way;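 further: % of control where 0% means no effect; miR-21 action dims this reporter so a rising signal means less miR-21 action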
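Luminescence from a firefly luciferase reporter carrying a miR-21 binding site downstream, stably expressed under a CMV promoter in HeLa cells that make miR-21 endogenously, reports miRNA modulation after 48 h compound exposure up to approximately 40uM final.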
KDM4E inh – blocks human JMJD2E demethylase activity. JMJD2E catalytic domain, FDH-coupled NADH fluorescence (FDH is formaldehyde dehydrogenase). Potency, µM (series often up to 57.1 µM), for the others: at the highest dose activity change, negative = inhibition, most hits filed as inhibitors. 230,000 compounds, 1.6% hits. AID 2147; active = well fitted inhibition curve with a large enough effect, not every such curve was filed as active; inconclusive = small, poorly fitted or top-dose-only effect, or another doubt; inactive = no such curve, though single readings can be large or run the other way;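 also: potency is read from the fitted curve at half-maximal effect; 0% = wells with enzyme and -100% = buffer wells without enzyme; nearly all actives have a fitted effect of over 50% in size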
Sfp PPTase inh – blocks B. subtilis Sfp PPTase activity; Q9F4F7; Biochemical Sfp PPTase activity, qHTS; Potency, µM, for the others: max response, negative = inhibition, most hits filed as inhibitors; actives 3.5% (n = 310,000); AID 1490; active = well fitted inhibition curve with a large enough effect; inconclusive = small, poorly fitted or top-dose-only effect, or another doubt; inactive = no such curve, though single readings can be large or run the other way;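 also: the enzyme is Sfp with the accession as filed and its product quenches rhodamine fluorescence; potency is read from the fitted curve at half-maximal effect; 0% = enzyme reaction without inhibitor and -100% = no enzyme wells; top concentration of the series not given in the record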
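Compounds were incubated with enzyme (final 15 nM) for 15 min at room temperature before substrate addition started the reaction. Fluorescence at 525 nm excitation, 598 nm emission was recorded immediately and after 30 minutes.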
G9a inh – G9a (human) methyltransferase inhibition. Q96KQ7. G9a H3K9 monomethylation, AlphaScreen, 2 h. Potency, µM (doses to about 102 µM), for inactives: at the highest dose activity, negative = inhibition, usual class: inhibitors. 350,000 compounds, 8.8% hits; also: potency is read from the fitted curve at half-maximal effect; % is scaled to controls: 0 for no effect and ±100 for the full control effect; nearly all actives have a fitted effect of over 75% in size
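AlphaScreen detection with an anti-monomethyl H3K9 antibody quantified product after a 2 h room-temperature reaction containing 500 nM biotinylated H3K9 peptide, 20 µM SAM and 20 nM enzyme, which had been preincubated 15 min with compound.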
LMNA splice mod – changes lamin A minigene splicing in HeLa cells. 200,000 compounds, 0.01% hits. Potency, µM (highest dose often 46.1 µM), without a hit: top-dose ratio change, negative = inhibition, hits mostly inhibitors. AID 1487. HeLa LMNA splicing GFP/RFP minigene ratio, 48 h; active = well fitted inhibition curve with a large enough effect in the signal ratio, with a control signal flat, not every such curve was filed as active; inconclusive = small, poorly fitted or top-dose-only effect, or effect the other way, or a change in a side signal; the % refers to the signal ratio; also: potency is read from the fitted curve at half-maximal effect; % is scaled to controls: 0 for no effect and ±100 for the full control effect
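Read-out is the ratio of GFP to DsRed2 object intensity, acquired by 488 nm laser-scanning cytometry on HeLa lamin A-EGFP minigene reporter cells. Compound incubation 48 hrs at 37 °C in Opti-MEM with 2% FBS; DMSO 0.5% final.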
* hit, by the source's call; ? = inconclusive; · = no result; [ ] = remark or other dose. Most compounds without a hit are left out; they make up all but 13% or so of the library. Unless noted, calls follow the shape of the dose curve; as a rule, active = well fitted curve in the direction sought with a large enough effect; inconclusive = small, poorly fitted or top-dose-only effect, or another doubt; inactive = no such curve, though single readings can be large; an effect the other way counts as inactive or inconclusive.

1	Cc1cccc(C(=O)NC(=S)NNC(=O)Cc2ccccc2)c1
2	Cc1cccc(C(=O)NC(=S)NNC(=O)COc2c(C)cccc2C)c1
3	O=C(NC1CCCN(Cc2ccc(Cl)cc2)C1)c1ccccc1-c1ncc[nH]1 (stereo unspecified)
4	CC(C(=O)O)N1CCCCC1 (stereo unspecified)
5	COc1ccc(CCNC(=O)c2cn(C)c3ccc(S(=O)(=O)N(C)C)cc3c2=O)cc1OC
6	OC(CN1CCCC1)Cn1ccc2ccccc21 (stereo unspecified)
7	O=C(c1ccccc1)N1CCN(CC(O)Cn2ccc3ccccc32)CC1 (stereo unspecified)
8	OC(CNc1ccccc1)Cn1ccc2ccccc21 (stereo unspecified)

entry no. | 1 | 2 | 3 | 4 | 5 | 6 | 7 | 8
miR-21 reporter | 0% | -16% | 1% | -1% | -1% | -3% | 0% | -9%
LMNA splice mod | ? | ? | · | · | · | · | · | ?
Sfp PPTase inh | 13% | -15% | 0% | 17% | · | -8% | -25% | -29%
G9a inh | 7.1µM* | 7.9µM* | · | ? | 3%[59 µM] | 14µM* | 11µM* | 32µM*
ALDH1A1 inh | ? | ? | · | · | · | · | · | -15%
KDM4E inh | -6% | 6% | · | -13% | · | · | ? | ?

9	Cc1ccc(C(=O)N=c2sccn2C)cc1C
10	Cc1ccc(C(=O)N=c2sccn2C)cc1S(=O)(=O)N1CCOCC1
11	CC1=C(C(=O)OCc2ccccc2)C(c2ccc3ccccc3c2)NC(=O)N1CCCC(=O)O (stereo unspecified)
12	CC1=C(C(=O)OCc2ccccc2)C(c2ccccc2Cl)NC(=O)N1CCCCCC(=O)O (stereo unspecified)
13	CC1=C(C(=O)OCc2ccccc2)C(c2ccccc2-c2ccccc2)NC(=O)N1CCCCCC(=O)O (stereo unspecified)
14	CC1=C(C(=O)OCc2ccccc2)C(c2ccccc2Cl)NC(=O)N1CCCC(=O)O (stereo unspecified)
15	COc1cc(OC)c(NC(=O)Cn2c(=O)cc(C)c3c(C)nn(-c4ccc(C)cc4)c32)cc1Cl
16	NC1=NC2C(N=C(Br)N2[C@@H]2O[C@H]3COP(=O)(O)O[C@@H]3[C@@H]2O)C(=O)N1 (stereo partly specified)

entry no. | 9 | 10 | 11 | 12 | 13 | 14 | 15 | 16
miR-21 reporter | -6% | · | -5% | -5% | -6% | -1% | 0% | ·
LMNA splice mod | · | · | · | · | ? | · | 2%[46 µM] | ·
Sfp PPTase inh | 20% | · | 0% | 3% | -1% | 3% | · | 4%
G9a inh | 72% | 40µM* | · | 79µM* | 50µM* | -11% | 19%[59 µM] | 29%[59 µM]
ALDH1A1 inh | · | · | · | · | ? | · | · | 9%
KDM4E inh | · | · | · | · | -5% | · | · | ·

17	CCN(CC)c1ccc(C2C3CCCCC3(O)CCN2C(=O)c2cccs2)cc1 (stereo unspecified)
18	CCOc1ccc(NC2=CC(=O)CC(c3ccco3)C2)cc1 (stereo unspecified)
19	CCCCCCCNC1=CC(=O)CC(c2ccco2)C1 (stereo unspecified)
20	Cc1scc(C(=O)Nc2ccon2)c1-c1ccccc1
21	O=C(CCc1ccccc1)NCC(=O)N/N=C/c1ccc(O)cc1O
22	O=C(CNC(=O)c1cccnc1)N/N=C/c1ccc(O)cc1O
23	O=C(CCc1ccccc1)NCC(=O)N/N=C/c1ccc2c(c1)OCO2
24	O=C(CNC(=O)c1cccs1)N/N=C/c1ccc(O)cc1O

entry no. | 17 | 18 | 19 | 20 | 21 | 22 | 23 | 24
miR-21 reporter | -13% | -15% | -21% | -4% | 14% | -8% | -13% | 4%
LMNA splice mod | -2% | 3%[46 µM] | 0% | 3% | · | · | 6% | ·
Sfp PPTase inh | -13% | -4% | -5% | 9% | 11% | 13% | 25% | 9%
G9a inh | 50µM* | ? | ? | 3%[59 µM] | 8% | 28% | 2%[59 µM] | 128%[59 µM]
ALDH1A1 inh | ? | -11% | 25µM* | 28µM* | · | · | -1% | 0%
KDM4E inh | -4% | -11% | -14% | -2% | 6.3µM* | · | -10% | 3.2µM*

25	COC(=O)c1cc2occc2n1CC(=O)Nc1ccc(C)cc1Cl
26	COc1ccc(OC)c(C(C[N+](=O)[O-])c2c(C)cc3ccccn23)c1 (stereo unspecified)
27	COc1ccc(C(C[N+](=O)[O-])c2c(C)cc3ccccn23)c(OC)c1 (stereo unspecified)
28	O=C1NCCCC2c3c(cc(Br)c(O)c3Br)OC12N1CCOCC1 (stereo unspecified)
29	CCc1ccc(CNC(=O)c2cnc3sc(N(CC)CC)nn3c2=O)cc1
30	COc1ccc(C(C)=O)cc1CSc1nc2ccccc2c(=O)n1-c1ccccc1C
31	COc1ccc(C(C)=O)cc1CSc1nnc(Nc2ccccc2)s1
32	COCCn1c(SCC(=O)Nc2sccc2C(N)=O)nc2cc(Cl)ccc2c1=O

entry no. | 25 | 26 | 27 | 28 | 29 | 30 | 31 | 32
miR-21 reporter | -4% | 13% | 12% | -4% | 2% | -8% | 26% | 28%
LMNA splice mod | · | · | · | 7% | ? | -1% | ? | ?
Sfp PPTase inh | · | -23% | -19% | ? | · | 13% | -6% | -15%
G9a inh | -4%[59 µM] | 45µM* | 40µM* | ? | 20%[59 µM] | 0%[59 µM] | -18%[59 µM] | 45µM*
ALDH1A1 inh | · | · | · | 3.2µM* | · | ? | ? | ?
KDM4E inh | · | · | · | ? | · | -3% | 12% | ?

Single records, from the list above. Screens in order: miR-21 reporter	LMNA splice mod	Sfp PPTase inh	G9a inh	ALDH1A1 inh	KDM4E inh
Entry for COC(=O)c1cc2occc2n1CC(=O)Nc1ccc(C)cc1Cl : -4%	·	·	-4%[59 µM]	·	·
Entry for COc1ccc(C(C)=O)cc1CSc1nnc(Nc2ccccc2)s1 : 26%	?	-6%	-18%[59 µM]	?	12%
Entry for COCCn1c(SCC(=O)Nc2sccc2C(N)=O)nc2cc(Cl)ccc2c1=O : 28%	?	-15%	45µM*	?	?

More structures follow.
33	COc1ccc(C(C)=O)cc1CSc1nnc(-c2ccc(Cl)cc2)n1-c1ccccc1
34	COCCn1c(SCc2cc(C(C)=O)ccc2OC)nc2cc(Cl)ccc2c1=O
35	COc1ccc(C(C)=O)cc1CSc1nnc(Nc2ccc(C)cc2)s1
36	COCCn1c(SCC(=O)Nc2cccnc2Cl)nc2cc(Cl)ccc2c1=O
37	COc1cccc(CNC(=O)c2ccc(NC(=O)N3CCCCc4ccccc43)cc2)c1OC
38	CCc1ccc(NC(=O)CSc2nc3nc(C)cc(C)n3n2)cc1
39	O=c1[nH]c(/C=C/c2cccc3ccccc23)nc2ccccc12
40	O=c1nc2cccc3c2=c(/c1=C(\O)c1ccccc1)c1ccccc1c3=O

entry no. | 33 | 34 | 35 | 36 | 37 | 38 | 39 | 40
miR-21 reporter | -4% | -9% | 16% | · | -5% | 8% | -31% | -8%
LMNA splice mod | 9% | 0% | ? | · | 4%[46 µM] | · | ? | ?
Sfp PPTase inh | -11% | 2% | -2% | · | · | 6% | -16% | 7%
G9a inh | · | 21%[59 µM] | 10µM* | -28%[2.33 µM] | 15%[59 µM] | -8%[59 µM] | 32% | ?
ALDH1A1 inh | 10µM* | 18µM* | ? | · | · | · | -7% | 0.63µM*
KDM4E inh | -4% | -4% | 11% | · | · | · | ? | -12%

Source: PubChem (National Center for Advancing Translational Sciences (NCATS))
